# Results: PubChem BioAssay (Tox21)
# Amino acid sequences for entries named in this document (tags omitted). A change or cut given only in a name is not applied to a line headed by its entry.
# UniProt P22303: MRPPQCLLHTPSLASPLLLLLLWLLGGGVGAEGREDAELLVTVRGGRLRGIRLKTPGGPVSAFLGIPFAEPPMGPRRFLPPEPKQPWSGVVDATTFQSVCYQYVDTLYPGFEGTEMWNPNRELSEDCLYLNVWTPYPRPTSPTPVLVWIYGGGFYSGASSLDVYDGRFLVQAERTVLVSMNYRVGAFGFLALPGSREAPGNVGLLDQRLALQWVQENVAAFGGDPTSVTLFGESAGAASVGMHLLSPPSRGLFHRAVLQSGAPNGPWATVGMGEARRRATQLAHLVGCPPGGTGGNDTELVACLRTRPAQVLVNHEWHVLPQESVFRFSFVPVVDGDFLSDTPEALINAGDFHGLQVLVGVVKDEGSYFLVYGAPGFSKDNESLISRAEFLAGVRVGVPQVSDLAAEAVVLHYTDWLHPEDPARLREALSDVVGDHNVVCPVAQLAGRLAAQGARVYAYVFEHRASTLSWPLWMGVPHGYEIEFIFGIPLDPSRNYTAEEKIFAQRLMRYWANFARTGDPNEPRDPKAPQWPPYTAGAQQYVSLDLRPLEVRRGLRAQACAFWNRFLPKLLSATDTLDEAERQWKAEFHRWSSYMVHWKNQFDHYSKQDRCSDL
# “And” between values parts separate entries of the source, which are not always exact repeats. Equal values may be shown once. The entries are a selection whose mix differs from that of the whole data set. Results filed as inconclusive are left out. A structure can be active in one record and inactive in another. The source made the active and inactive calls. The call rests on the fitted dose curve.
# Target: Acetylcholinesterase (Homo sapiens) (UniProt P22303)
# Test: Acetylcholinesterase (AChE) small molecule antagonists: fluorescence cell-based qHTS assay (AID 1347398); further: nearly all actives have a fitted effect of over 50% in size
# Details: SH-SY5Y cells, AChE activity
# From the text: National Center for Advancing Translational Sciences [NCATS]
# Division of Preclinical Innovation [DPI]
# U.S. Environmental Protection Agency [EPA]
# National Institutes of Environmental Health Sciences [NIEHS]
# National Toxicology Program [NTP]
# U.S. Food and Drug Administration [FDA]
# Acetylcholinesterase (AChE) is the primary cholinesterase in the body that hydrolyzes a key neurotransmitter, acetylcholine. Inhibition of AChE activity can lead to neurotoxicity. Known inhibitors of AChE include organophosphorous pesticides (OP), chemical warfare agents, drugs, and various phytochemicals.
# A homogenous cell-based assay using Amplitetrade mark Fluorimetric Acetylcholinesterase Assay Kit *Green Fluorescence* (AAT Bioquest, Sunnyvale, CA) was used to evaluate the chemicals in the Tox21 10K library that inhibit AChE activity. The assay uses Thiolite Green to quantify the thiocholine produced from the hydrolysis of acetylthiocholine by AChE from the SH-SY5Y cells. AChE can hydrolyze acetylthiocholine to create thiocholine. Thiolite Green is fluorescent when reacting with thiocholine. It has spectral properties similar to those of fluorescein. The fluorescence intensity of Thiolite Green is used to measure AChE activity. Its signal can be easily read by a fluorescence microplate reader at Ex/Em = 490/520 nm.
# Tox21 Assay Protocol Summary:
# For cell-based AChE assay, 2,000 SH-SY5Y cells in 4 uL/well were dispensed into black, clear-bottom 1536-well plates using a Multidrop Combi (Thermo Scientific) dispenser. The assay plates were incubated overnight at 37 C to allow cells to attach to the wells, followed by the transfer of 23 nL compound or DMSO (vehicle control) by a Pintool station (Wako Automation, CA). The plates were incubated for 30 min at 37 C and 5% CO2, followed by the addition of 4 uL of detection cocktail solution (ThioliteGreen, acetylthiocholine) into each well using Flying Reagent Dispenser (Beckman Coulter, CA) and then following 40 min incubation at room temperature. Fluorescent intensity (Ex/Em = 490/520 nm) was measured using an Envision plate reader (PerkinElmer, MA).
# Potency means the concentration at half of the fitted maximal effect.
row,SMILES,Potency
1,Nc1c2ccccc2nc2ccccc12,active: 125 nM and active: 27.5 nM
2,CNC(=O)O/N=C/C(C)(C)SC,active: 1.27 µM and active: 3.17 µM
3,Oc1c(Cl)cc(Cl)c(Cl)c1Cc1c(O)c(Cl)cc(Cl)c1Cl,active: 70.8 µM
4,CNC(=O)O/N=C/C(C)(C)S(C)(=O)=O,active: 3.57 µM and active: 11.2 µM
5,CCN(CC)CCCC(C)Nc1c2ccc(Cl)cc2nc2ccc(OC)cc12 (stereo unspecified),active: 6.92 µM
6,CN(C)c1ccc2nc3ccc(=[N+](C)C)cc-3sc2c1,active: 1.21 µM and active: 894 nM and active: 1.23 µM
7,COc1cc(C(=O)NCc2ccc(OCCN(C)C)cc2)cc(OC)c1OC,active: 9.77 µM
8,c1ccc(C[n+]2cccc3ccccc32)cc1,active: 10 µM
9,CO[C@]12C[C@@H](COC(=O)c3cncc(Br)c3)CN(C)[C@@H]1Cc1cn(C)c3cccc2c13,active: 0.55 µM
10,CCOP(=O)(OCC)O/C(=C/Cl)c1ccc(Cl)cc1Cl,active: 1.26 µM
11,COc1ccc2cc3[n+](cc2c1OC)CCc1cc2c(cc1-3)OCO2,active: 1.43 µM and active: 1.1 µM
